# Literature values as cited in patent US20070190132A1, “Pharmaceutical compositions for oral and topical administration” (IVAX-CR a.s., priority 1999, published 2007).
# Conditions: hydrates formed on standing
substance,measurement,value
paclitaxel hydrates,equilibrium concentration in water,0.3 to 0.6 µg/mL
